Source: ChEMBL document CHEMBL4507272, “Data for DCP probe BAY-678” (2021)

Sequences of proteins named here, by UniProt entry; tags and fusion partners are left off. A change or cut given only in a name is not applied to a line headed by its entry.
UniProt O75676: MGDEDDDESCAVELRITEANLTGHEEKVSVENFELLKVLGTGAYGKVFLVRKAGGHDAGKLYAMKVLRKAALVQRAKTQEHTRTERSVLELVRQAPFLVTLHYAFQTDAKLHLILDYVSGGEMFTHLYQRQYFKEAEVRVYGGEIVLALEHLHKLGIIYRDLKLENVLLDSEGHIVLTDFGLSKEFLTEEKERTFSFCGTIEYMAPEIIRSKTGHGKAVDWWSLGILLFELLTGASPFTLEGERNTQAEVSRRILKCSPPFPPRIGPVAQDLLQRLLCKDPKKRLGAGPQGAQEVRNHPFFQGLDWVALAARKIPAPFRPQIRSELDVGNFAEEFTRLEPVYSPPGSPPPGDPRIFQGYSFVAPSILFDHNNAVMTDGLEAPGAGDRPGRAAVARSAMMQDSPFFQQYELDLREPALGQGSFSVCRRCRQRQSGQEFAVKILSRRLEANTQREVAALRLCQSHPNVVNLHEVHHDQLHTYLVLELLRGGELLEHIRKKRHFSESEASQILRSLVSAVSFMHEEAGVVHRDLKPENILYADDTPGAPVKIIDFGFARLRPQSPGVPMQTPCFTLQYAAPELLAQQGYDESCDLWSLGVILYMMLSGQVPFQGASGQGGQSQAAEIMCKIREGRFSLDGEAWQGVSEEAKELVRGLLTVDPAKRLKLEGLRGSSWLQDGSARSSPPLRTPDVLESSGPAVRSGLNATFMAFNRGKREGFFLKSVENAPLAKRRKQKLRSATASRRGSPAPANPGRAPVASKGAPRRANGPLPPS

How the values were obtained:
Neutrophil elastase = molecular target: T1, Neutrophil elastase (Homo sapiens, UniProt P08246)
T1 sequence (P08246 whole entry): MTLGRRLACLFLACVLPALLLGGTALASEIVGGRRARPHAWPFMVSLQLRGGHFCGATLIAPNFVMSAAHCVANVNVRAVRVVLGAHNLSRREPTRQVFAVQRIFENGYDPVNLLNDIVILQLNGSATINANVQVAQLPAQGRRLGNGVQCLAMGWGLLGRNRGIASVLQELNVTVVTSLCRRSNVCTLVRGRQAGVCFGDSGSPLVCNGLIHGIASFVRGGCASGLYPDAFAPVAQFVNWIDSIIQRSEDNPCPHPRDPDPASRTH

[1] = molecular target: Ribosomal protein S6 kinase alpha-4 (Homo sapiens) (UniProt O75676); conditions: Compound concentration 1000.0 nM

CC(=O)C1=C(C)N(c2cccc(C(F)(F)F)c2)C(=O)N[C@H]1c1ccc(C#N)nc1 [BAY-677]
IC50 (Neutrophil elastase): > 2000 nM (not active)

CC(=O)C1=C(C)N(c2cccc(C(F)(F)F)c2)C(=O)N[C@@H]1c1ccc(C#N)nc1 [BAY-678]
residual activity [1]: 33.5%
